Patent US20230079819A1, “COMPOUNDS AND USES THEREOF” (Foghorn Therapeutics Inc., priority 2019, published 2023)

How the values were obtained:
[1] = test system: parental and PKC-inhibitor refractory uveal melanoma cell lines; assay: Inhibition of cell proliferation of parental and PKC-inhibitor refractory uveal melanoma cell lines; format: cell-based
[2] = test system: several cancer cell lines; assay: Inhibition of cell proliferation of several cancer cell lines; format: cell-based
[3] = test system: uveal melanoma and non-small cell lung cancer cell lines
[4] = test system: uveal melanoma cell line 92-1; assay: Inhibition of cell proliferation of uveal melanoma cell line 92-1; format: cell-based
[5] = test system: uveal melanoma cell line MP41; assay: Inhibition of cell proliferation of uveal melanoma cell line MP41; format: cell-based

Measured: inhibition of cell proliferation

CSCC[C@H](NC(=O)c1ccn(S(C)(=O)=O)c1)C(=O)Nc1nc(-c2cccc(-c3ccncc3)c2)cs1 [Compound 67, (S)-1-(methylsulfonyl)-N-(4-(methylthio)-1-oxo-1-((4-(3-(pyridin-4-yl)phenyl)thiazol-2-yl)amino)butan-2-yl)-1H-pyrrole-3-carboxamide]
inhibition of cell proliferation: all assays above
